# AlphaSeq binding of Ab-14 light chain variants to a spike HR2 peptide

Antigen: PDVDLGDISGINAS, a 14-residue peptide of the SARS-CoV-2 spike HR2 region.

Each scFv is VH, a 15-residue (Gly4Ser)3 linker, VL, as in the parent Ab-14, and differs from it in the CDRs of the light chain only.
VH: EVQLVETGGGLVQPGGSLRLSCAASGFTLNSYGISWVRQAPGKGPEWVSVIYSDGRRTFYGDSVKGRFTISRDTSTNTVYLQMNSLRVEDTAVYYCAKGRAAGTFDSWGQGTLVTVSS
VL: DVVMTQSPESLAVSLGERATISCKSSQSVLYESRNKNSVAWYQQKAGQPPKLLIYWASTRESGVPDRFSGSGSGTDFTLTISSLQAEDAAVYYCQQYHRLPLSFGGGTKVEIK

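In library AAYL50, one, two or three CDR residues were substituted; doubles and triples were drawn at random. AlphaSeq pools MATa yeast showing the antibodies with MATalpha yeast showing the peptide. After mating in shaken culture at 30 °C for 16 h, diploids were selected and their barcode pairs sequenced. Scores were corrected for input abundance and mapped to Kd with protein pairs of known affinity run in the same pool. Each pool was mated in three replicate cultures.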

Variants are written as CDR1, CDR2 and CDR3 of the light chain (limits as in the source). Parent: KSSQSVLYESRNKNSVA, WASTRES, QQYHRLPLS. Every variant below is changed at V39 of the VL (sequential numbering). Each Kd is an estimate from the mating assay, the geometric mean of the replicates in which the pair was seen; lower is stronger. "nd" means that the variant was in the library but no mating with the target was seen in any replicate; the authors take this as a sign of poor binding, and no number exists. Nonspecific signal, from three strains lacking the peptide, appeared in 18% of pairings of library AAYL50, centred on 15 µM (5% of these signals below 970 nM); values are not corrected for it. For each scFv, signals with the empty controls are counted beside the result. In this assay the parent's reference entry averaged 4.4 nM; its copy inside this library read 48 nM.

With KHSQSVLYRSRNKNSRA / WASTRES / QQYHRLPLS the result was nd (0 of 3 replicates; controls 1 of 9).
With KSSQSVLYESRNKNSNY / WASTRES / QQYHRLPRS the result was 5.9 µM (1 of 3 replicates; controls 3 of 9).
With KSSQSVLYESRNKNSGA / WASTRFS / QQYSRLPLS the result was nd (0 of 3 replicates; controls 0 of 9).
With KSSQSVLYESRWKNSYA / WWSTRES / QQYHRLPLS the result was nd (0 of 3 replicates; controls 0 of 9).
With KKGQSVLYESRNKNSFA / WASTRES / QQYHRLPLS the result was nd (0 of 3 replicates; controls 2 of 9).
With KSSQSVLYESRFKNSWA / WASTDES / QQYHRLPLS the result was 32 µM (2 of 3 replicates; controls 6 of 9).
With KSSQSVLYESRNKNSSA / WASTRES / QCYDRLPLS the result was 2.8 µM (1 of 3 replicates; controls 1 of 9).
With KSSQSVLYESRNKNSPA / WASTNEL / QQYHRLPLS the result was nd (0 of 3 replicates; controls 0 of 9).
With KSSQSVLYESRNKNSDA / WASTRES / QQYHREPRS the result was 75 µM (3 of 3 replicates; controls 5 of 9).
With KSSQSFLYESRNKNSPA / WASTRES / QYYHRLPLS the result was 28 µM (1 of 3 replicates; controls 1 of 9).
With KSSQCVLYESRNKNSLA / WASTRES / QQYHRLPLS the result was 1.1 µM (3 of 3 replicates; controls 5 of 9).
With KSSQSVLYESRNKNSTA / WASTRES / QQYCRLPIS the result was 690 nM (3 of 3 replicates; controls 1 of 9).
With YSSQSVLYESRNKNDFA / WASTRES / QQYHRLPLS the result was 13 µM (1 of 3 replicates; controls 1 of 9).
With KSSQSVLYESRNKNSIA / WASTRES / QQYHRLPLS the result was 7.2 nM (3 of 3 replicates; controls 0 of 9).
With KSDQSVLYESRNKNSTA / WASTRES / QQYHRLPLI the result was 830 nM (1 of 3 replicates; controls 3 of 9).
With KSSQSVLYESRNKNSMA / WASDRCS / QQYHRLPLS the result was 21 nM (3 of 3 replicates; controls 4 of 9).
With KSSQSVIYESRNKNSSG / WASTRES / QQYHRLPLS the result was 100 µM (3 of 3 replicates; controls 6 of 9).
With KSSQSVLYESRNKNSLA / WASTRYS / QWYHRLPLS the result was nd (0 of 3 replicates; controls 0 of 9).
With KSSQSVLYESRDKNSGA / WASTRES / QQYHRLPLS the result was nd (0 of 3 replicates; controls 0 of 9).
With KSSQSVEYESRNKNSIA / WASTRES / QQYHRLPLS the result was 2.9 nM (3 of 3 replicates; controls 5 of 9).
With KSSQSVLYESRNKNSIT / WASTRES / QQYHRLPLN the result was nd (0 of 3 replicates; controls 0 of 9).
With KSSQSVCYESRNKNSKA / WASTRES / QQYGRLPLS the result was 41 µM (3 of 3 replicates; controls 6 of 9).
With SSSPSVLYESRNKNSDA / WASTRES / QQYHRLPLS the result was 5.6 µM (1 of 3 replicates; controls 0 of 9).
With KSSQSVLYESRNKNSLA / WASTRES / QVYHRLPLV the result was nd (0 of 3 replicates; controls 0 of 9).
With KSSTSVLYESRNKNSMA / WASTRES / HQYHRLPLS the result was 25 nM (3 of 3 replicates; controls 0 of 9).
With KSSQSQLYESRNKSSDA / WASTRES / QQYHRLPLS the result was nd (0 of 3 replicates; controls 0 of 9).
With KSSQSVLYESRNKNSGA / WASTREY / QQYHRLPLD the result was nd (0 of 3 replicates; controls 0 of 9).
With KSSQSVLGESRNKNSGA / WASYRES / QQYHRLPLS the result was 210 µM (1 of 3 replicates; controls 0 of 9).
With KSIQSVLYESRNKNSRA / WASTRHS / QQYHRLPLS the result was 22 µM (2 of 3 replicates; controls 5 of 9).
With KSSQSVLYESRNKNSHA / WNSTREA / QQYHRLPLS the result was 630 nM (1 of 3 replicates; controls 1 of 9).
With KSSQSVLYELRNKNSWA / WADTRES / QQYHRLPLS the result was 2.2 µM (1 of 3 replicates; controls 1 of 9).
With KSSQSVLYEHRNKNSAA / WASTRES / QQYHRLPCS the result was nd (0 of 3 replicates; controls 0 of 9).
With KSSQSVLNESRNKNSKA / WASTYES / QQYHRLPLS the result was 1.8 µM (1 of 3 replicates; controls 1 of 9).
With KSSQSVLYESWNKNSGA / WASTRES / QQYHRLPNS the result was nd (0 of 3 replicates; controls 1 of 9).
With KSSQSVLYESRNKQSAA / WASTREV / QQYHRLPLS the result was nd (0 of 3 replicates; controls 0 of 9).
With KSSQSVVYESRNKNSGA / WASTRES / QQPHRLPLS the result was 25 µM (1 of 3 replicates; controls 5 of 9).
With KSSQSVLYESQNKNSRA / WASTRES / QFYHRLPLS the result was 48 µM (2 of 3 replicates; controls 3 of 9).
With KSSQSVLYEFRNKNSAA / WASTRES / QQYHRAPLS the result was 7.6 µM (1 of 3 replicates; controls 2 of 9).
With KSSQSVLYESRNKNSDA / WASTPES / QQYHRLPLS the result was nd (0 of 3 replicates; controls 1 of 9).
With KSSQSVLYESRNKNSQA / WASTRES / QQYHRLPLS the result was nd (0 of 3 replicates; controls 2 of 9).
With KSSQSFLYESRNKNSNM / WASTRES / QQYHRLPLS the result was 12 µM (2 of 3 replicates; controls 3 of 9).
With KSSQSVLYESRNKNSRA / WAVTRES / QQYHRLPLS the result was nd (0 of 3 replicates; controls 0 of 9).
With KSSQSVHYESRNKNSHA / WASTRES / QQYHRRPLS the result was 77 µM (2 of 3 replicates; controls 4 of 9).
With KSSQSVLYESRNKNSQA / WASTRES / YQYHRLQLS the result was nd (0 of 3 replicates; controls 0 of 9).
With KSSQSWLYESRNKNSCA / WASTRES / QQYHRTPLS the result was 2.0 µM (1 of 3 replicates; controls 0 of 9).
With KSSQSVLYESREKNSWA / WASTRES / QQYYRLPLS the result was 6.3 µM (1 of 3 replicates; controls 5 of 9).
With ISSQSVLYESRNKISLA / WASTRES / QQYHRLPLS the result was 68 µM (1 of 3 replicates; controls 1 of 9).
With NSSQSVLYESRNKNSYA / WASTRES / QQYHRLPLS the result was 14 µM (1 of 3 replicates; controls 1 of 9).
With KSSQSVLYESRNKNSGA / WASTRES / QQYHYLPLS the result was 5.6 µM (1 of 3 replicates; controls 0 of 9).
With KSSQSVLYESRNKNSFA / WASTRES / RQYHRLPLP the result was nd (0 of 3 replicates; controls 0 of 9).
With KSSQSVLYESRNKNSPA / WASTFES / QQYHRMPLS the result was 250 µM (1 of 3 replicates; controls 1 of 9).
With KSSQSVLYESRNKNSCG / KASTRES / QQYHRLPLS the result was nd (0 of 3 replicates; controls 0 of 9).

Extract of 6 entries:

| CDR-L1 | CDR-L2 | CDR-L3 | apparent Kd | detected | control signals |
|---|---|---|---|---|---|
| KSSQSVLYESRNKNSDA | WASTRES | QQYHREPRS | 75 µM | 3/3 | 5/9 |
| KSSQSVVYESRNKNSGA | WASTRES | QQPHRLPLS | 25 µM | 1/3 | 5/9 |
| KSSQSVLYESRNKNSLA | WASTRES | QVYHRLPLV | nd | 0/3 | 0/9 |
| KSSQSVLYESRNKNSMA | WASDRCS | QQYHRLPLS | 21 nM | 3/3 | 4/9 |
| KSDQSVLYESRNKNSTA | WASTRES | QQYHRLPLI | 830 nM | 1/3 | 3/9 |
| KSSQSVLYESWNKNSGA | WASTRES | QQYHRLPNS | nd | 0/3 | 1/9 |

Reference: Engelhart et al. 2022, doi:10.1038/s41597-022-01779-4. File: FLAb, binding data.